The entries are a selection whose mix differs from that of the whole data set. Calls of active or inactive are those of the source.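 How the source made its calls: active means mean inhibition of at least 75% with every replicate also reaching 75%; inconclusive means mean inhibition at least 75% but some replicate below; inactive means mean inhibition below 75%.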
assay: Shn3 3'UTR reporter decrease in osteoblasts – cell-based, Clone20 osteoblasts, firefly luciferase, set 2, Schnurri-3 inhibitor project, primary screen (AID 588674); conditions: Clone20 osteoblast Shn3 3'UTR firefly luciferase, 24 h; at 12.5 µM; stronger effect = higher value;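 further: 0% = median of neutral control wells and 100% = pilot-screen positive control compound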

| Structure (SMILES) | inhibition |
| --- | --- |
| CP(=O)(Nc1ccc2c(c1)OCCO2)Oc1ccccc1 (stereo unspecified) | inactive: 31.7% |
